One assay addresses human CYP2C19 (Homo sapiens, UniProt P33261). The settings on record: read-out: IC50 CYP2C19, recombinant human CYP2C19 7.5 nM, 25 μM CEC, 30 min, 37°C, mean (95% confidence interval).
The next assay concerns the target human CYP2C9 (Homo sapiens, UniProt P11712). The settings on record: read-out: IC50 CYP2C9, recombinant human CYP2C9 15 nM, 150 μM MFC, 45 min, 37°C, mean (95% confidence interval).

By UniProt entry, the sequences of proteins in these tests, tags left out.
UniProt P33261, whole entry: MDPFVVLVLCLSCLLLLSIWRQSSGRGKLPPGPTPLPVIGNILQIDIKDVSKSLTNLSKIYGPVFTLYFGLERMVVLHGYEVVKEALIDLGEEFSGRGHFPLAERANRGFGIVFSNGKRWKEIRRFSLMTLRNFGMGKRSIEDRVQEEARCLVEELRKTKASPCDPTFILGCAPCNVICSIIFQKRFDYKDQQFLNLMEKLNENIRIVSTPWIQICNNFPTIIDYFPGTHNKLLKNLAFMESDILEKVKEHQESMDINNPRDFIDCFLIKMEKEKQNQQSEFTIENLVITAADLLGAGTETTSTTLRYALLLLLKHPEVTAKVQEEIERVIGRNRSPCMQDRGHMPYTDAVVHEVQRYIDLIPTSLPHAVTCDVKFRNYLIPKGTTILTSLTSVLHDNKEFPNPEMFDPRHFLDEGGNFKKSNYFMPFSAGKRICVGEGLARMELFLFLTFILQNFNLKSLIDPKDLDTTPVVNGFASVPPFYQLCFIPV
UniProt P11712, whole entry: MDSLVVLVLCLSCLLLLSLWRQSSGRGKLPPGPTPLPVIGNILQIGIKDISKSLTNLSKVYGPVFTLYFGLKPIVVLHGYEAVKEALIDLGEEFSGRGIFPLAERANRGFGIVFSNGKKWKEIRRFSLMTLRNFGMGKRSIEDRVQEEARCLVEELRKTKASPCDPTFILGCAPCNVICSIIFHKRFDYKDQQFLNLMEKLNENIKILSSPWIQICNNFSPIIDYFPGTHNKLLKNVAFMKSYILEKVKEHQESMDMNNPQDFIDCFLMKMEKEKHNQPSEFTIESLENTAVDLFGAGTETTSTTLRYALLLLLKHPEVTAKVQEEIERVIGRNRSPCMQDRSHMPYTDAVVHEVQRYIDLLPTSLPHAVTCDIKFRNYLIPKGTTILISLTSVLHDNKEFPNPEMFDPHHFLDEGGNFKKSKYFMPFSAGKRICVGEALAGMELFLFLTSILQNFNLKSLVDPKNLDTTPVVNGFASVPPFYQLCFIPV

The source of these data is publication PMC3252466 (Chirality, 2011).

Where two headings read alike, the source gives them in different places.

Broadly, the IC50 is the concentration at which inhibition is half-maximal. Regarding naringenin [rac-naringenin], the IC50 on human CYP2C19 is 2600 nM; at human CYP2C19 (listed as Naringenin) it was less than 5000 nM; on human CYP2C9 it was 2600 nM; at human CYP2C9 (listed as Naringenin) it was less than 5000 nM.
